# Laboratory results: paper PMC3362318 (Invertebrate Neuroscience, 2012)
# The chains behind the UniProt entries cited, without tags or fusion partners. Residues count along the entry.
# UniProt A9XX24, 19-536: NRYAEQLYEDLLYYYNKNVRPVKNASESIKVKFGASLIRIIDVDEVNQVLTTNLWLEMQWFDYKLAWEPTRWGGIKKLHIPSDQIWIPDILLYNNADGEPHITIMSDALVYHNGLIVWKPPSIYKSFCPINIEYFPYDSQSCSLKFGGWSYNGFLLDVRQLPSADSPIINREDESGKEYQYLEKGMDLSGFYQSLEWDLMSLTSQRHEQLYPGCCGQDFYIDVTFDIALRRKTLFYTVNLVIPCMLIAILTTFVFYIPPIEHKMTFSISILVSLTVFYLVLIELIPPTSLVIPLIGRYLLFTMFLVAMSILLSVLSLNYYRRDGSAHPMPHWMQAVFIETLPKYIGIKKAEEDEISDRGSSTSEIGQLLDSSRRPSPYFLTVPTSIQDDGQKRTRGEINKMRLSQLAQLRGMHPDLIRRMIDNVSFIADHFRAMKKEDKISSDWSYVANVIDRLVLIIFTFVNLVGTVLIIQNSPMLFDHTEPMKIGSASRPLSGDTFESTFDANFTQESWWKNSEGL
# Tests used:
# [1] = molecular target: T1, Hco-L-AChR2 (Haemonchus contortus, UniProt D6MYE9+D6MYF3+D6MYF4); assay: two-electrode voltage clamp, Xenopus oocytes, peak current; type: cell-based; conditions: agonist; -60 mV, 1 mM external CaCl2, pH 7.3, BAPTA-AM treated
# T1 sequence (D6MYE9 21-498): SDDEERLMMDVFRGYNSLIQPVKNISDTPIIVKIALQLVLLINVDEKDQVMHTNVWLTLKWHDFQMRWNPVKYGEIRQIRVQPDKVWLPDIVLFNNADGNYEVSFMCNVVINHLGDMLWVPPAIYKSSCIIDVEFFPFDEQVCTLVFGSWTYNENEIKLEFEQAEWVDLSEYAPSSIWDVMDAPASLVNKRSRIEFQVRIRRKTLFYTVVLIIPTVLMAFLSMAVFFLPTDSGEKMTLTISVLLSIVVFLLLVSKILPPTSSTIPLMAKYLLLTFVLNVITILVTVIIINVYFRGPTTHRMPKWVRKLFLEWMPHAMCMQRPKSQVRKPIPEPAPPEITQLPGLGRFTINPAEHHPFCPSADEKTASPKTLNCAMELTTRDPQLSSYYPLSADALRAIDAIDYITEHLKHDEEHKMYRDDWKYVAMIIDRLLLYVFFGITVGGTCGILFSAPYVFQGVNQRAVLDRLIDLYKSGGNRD
# T1 sequence (D6MYF3 20-512): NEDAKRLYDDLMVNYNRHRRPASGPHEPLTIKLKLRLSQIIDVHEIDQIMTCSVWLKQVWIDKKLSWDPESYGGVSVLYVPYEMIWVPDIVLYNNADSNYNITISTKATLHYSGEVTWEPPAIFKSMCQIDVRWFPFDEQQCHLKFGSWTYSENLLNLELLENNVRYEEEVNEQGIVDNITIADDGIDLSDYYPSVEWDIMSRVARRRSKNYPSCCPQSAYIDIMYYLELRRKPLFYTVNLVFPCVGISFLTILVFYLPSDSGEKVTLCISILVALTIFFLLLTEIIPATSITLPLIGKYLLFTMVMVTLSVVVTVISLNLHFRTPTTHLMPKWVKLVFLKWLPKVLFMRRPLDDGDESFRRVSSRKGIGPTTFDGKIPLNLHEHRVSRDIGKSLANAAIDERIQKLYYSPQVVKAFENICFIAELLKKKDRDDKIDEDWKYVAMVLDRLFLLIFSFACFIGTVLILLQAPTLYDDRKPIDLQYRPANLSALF
# T1 sequence (D6MYF4 22-504): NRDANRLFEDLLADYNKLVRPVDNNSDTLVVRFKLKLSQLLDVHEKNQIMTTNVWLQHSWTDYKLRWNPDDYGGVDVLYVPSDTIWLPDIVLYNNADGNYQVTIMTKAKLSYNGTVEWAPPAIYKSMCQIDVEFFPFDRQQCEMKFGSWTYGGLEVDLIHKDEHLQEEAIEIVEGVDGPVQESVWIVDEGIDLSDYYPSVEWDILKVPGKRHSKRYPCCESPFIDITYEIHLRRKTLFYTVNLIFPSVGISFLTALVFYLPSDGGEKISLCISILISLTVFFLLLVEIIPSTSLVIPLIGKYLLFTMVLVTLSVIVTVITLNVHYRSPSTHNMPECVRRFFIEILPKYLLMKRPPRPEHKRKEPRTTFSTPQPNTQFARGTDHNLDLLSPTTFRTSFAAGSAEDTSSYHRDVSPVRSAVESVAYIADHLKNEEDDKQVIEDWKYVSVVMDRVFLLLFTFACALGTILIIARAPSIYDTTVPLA
# [2] = molecular target: Hco-L-AChR1 (Haemonchus contortus, UniProt A9XX24+D6MYE9+D6MYF3+D6MYF4); assay: two-electrode voltage clamp, Xenopus oocytes, dose-response; type: cell-based
smiles,measurement,setting,value
"CC(=O)OCC[N+](C)(C)C [Ach, acetylcholine]","two-electrode voltage clamp, Xenopus oocytes, peak current",[1],Hco-L-AChR2 potency series was: pyrantel > acetylcholine > nicotine > levamisole
same,EC50,[2],5.8 ± 0.5 µM
